## Binding of CDR-mutated scFvs to a peptide of the spike HR2 region

Reference: Li et al. 2023, doi:10.1038/s41467-023-39022-2. File: FLAb, binding data.

Binding partner: SARS-CoV-2 spike HR2 peptide, sequence PDVDLGDISGINAS.

The variants keep the heavy chain, the linker and the frameworks of Ab-14 (scFv order VH, the linker GGGGSGGGGSGGGGS, VL).
VH: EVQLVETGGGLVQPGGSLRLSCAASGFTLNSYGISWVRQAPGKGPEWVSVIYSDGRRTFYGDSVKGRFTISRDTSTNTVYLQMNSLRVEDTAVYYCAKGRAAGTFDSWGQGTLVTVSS
VL: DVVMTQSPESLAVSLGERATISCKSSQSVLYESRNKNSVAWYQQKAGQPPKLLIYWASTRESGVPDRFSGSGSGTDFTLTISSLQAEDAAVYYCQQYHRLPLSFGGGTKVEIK

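The starting antibody came from a phage panning campaign against this peptide. Designed CDR sequences, proposed from the first random library and measured here. Their group label is 14L_GP_Gibbs (GP: Gaussian process model; Gibbs: Gibbs sampling; a sequence that several methods proposed may carry one label only). The scFvs were displayed on barcoded MATa yeast, the peptide on MATalpha yeast. Binding brings cells together so that they mate, and sequencing counts the barcode pairs among the diploids. Read counts were normalised to the haploid input and turned into Kd by a linear fit to BCL2-family pairs of known affinity, for each replicate. The assay was run in six technical replicates.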

Changes read parent residue, position, new residue, counted from the first residue of the VL shown.
Values are log10 of the apparent Kd in nM; lower means stronger binding.
"n.d." means that the variant was in the library but no mating with the target was seen in that replicate; the authors take this as a sign of poor binding, and no number exists.
Background: pairings of all light chain designs with three empty control strains gave a value in 4% of cases (median 2.64, 5th percentile 1.59). Values in that range, when seen in few replicates, are hard to tell from nonspecific mating. The control count says in how many pairings with the empty strains this scFv gave a signal, with their mean in brackets.

changes,"replicates, log10 nM",signal with controls
S25V V29M L30P S33E W56N T59Q E61M,-0.18 -0.14 -0.26 -0.35 -0.30 -0.14,1/18 (2.67)
S25L S28Q V29W W56N T59Q E61L Q96C,0.45 0.30 0.26 0.08 0.15 0.37,1/18 (2.76)
S25M S26K L30D Y31G E32L S33D K36W W56Q S62M,0.05 0.09 -0.23 -0.25 0.08 -0.01,5/18 (3.02)
S25F S26E Q27P V29W K36V W56N E61S S62D,-0.28 -0.33 -0.32 -0.41 -0.42 -0.24,0/18
Q27G L30E Y31M E32L K36V W56E S58T,0.21 0.03 0.11 -0.17 -0.19 0.14,0/18
S25L S26Q Q27G V29D L30P N35M W56Q T59V,0.67 0.61 0.50 0.46 0.51 0.79,1/18 (1.81)
S25L S26Q Q27F S28L W56G E61F Q96A,1.04 n.d. 1.99 0.86 n.d. 1.98,1/18 (1.73)
S25V V29W L30Q E32G N37Q W56H T59Q,0.99 0.19 0.47 0.36 0.37 0.53,1/18 (2.88)
S25L V29H S33E S38N W56S T59Q S62W,-0.47 -0.47 -0.57 -0.76 -0.59 -0.40,0/18
S25L S26M Q27N V29M K36V S38N W56Q T59Q S62L,-0.30 -0.03 -0.38 0.07 -0.42 0.26,0/18
S25L S26Q V29Q S33W K36M W56N S62M S103I,0.79 0.76 0.55 0.75 0.84 0.66,1/18 (3.32)
S25Q S26Q V29D L30E Y31G E32M S33Q W56E S62M,-0.03 0.08 0.13 -0.37 -0.02 0.04,2/18 (2.23)
S25L S26Q S28Q V29E W56N T59D E61Q,-0.08 -0.20 -0.29 -0.30 -0.28 -0.06,2/18 (3.67)
S25A S26Q Q27A S28G V29D L30G W56E A57G T59K,-0.01 0.08 -0.01 -0.03 0.07 0.02,3/18 (2.35)
S25V S28G V29G S33Q N35Q W56N T59Q,1.02 0.60 0.33 0.80 0.47 0.94,0/18
S25L S28Q V29M K36H S38N W56A S62D,-0.28 -0.40 -0.46 -0.45 -0.42 -0.07,2/18 (2.20)
S25M S28E V29A L30M Y31M E32L K36H W56Q S62Q,-0.06 -0.37 -0.52 0.27 0.19 0.03,0/18
S25L Q27L Y31L K36V S38A W56E,0.74 0.37 0.50 0.41 0.42 0.56,0/18
S25L S26V S28H V29G L30D S38N W56Q T59Q S62Q,-0.40 -0.65 -0.61 -0.87 -0.84 -0.56,0/18
S25L V29D L30C S33D K36L S38N W56H S103M,0.36 -0.04 -0.15 -0.23 0.06 -0.19,1/18 (3.82)
Q27P V29E S33D K36F W56H T59Q,0.15 -0.04 0.18 -0.06 -0.03 0.01,1/18 (2.82)
S25M V29M L30W K36S W56N T59N E61L,-0.42 0.05 0.10 -0.15 -0.55 -0.07,1/18 (2.07)
S25V S26F Q27P V29E Y31G N37M W56S,0.20 -0.12 -0.38 -0.20 -0.20 -0.12,1/18 (2.51)
K24H S25M S26Y V29G W56S T59M,0.20 0.03 -0.08 0.11 0.17 0.12,1/18 (2.34)
S25V V29M L30G K36Q W56E T59H S103W,0.60 0.64 0.43 0.49 0.42 0.93,1/18 (3.09)
S25L Q27F V29C R34A W56N E61Y,0.06 0.12 -0.02 -0.12 0.04 0.24,1/18 (2.92)
S25Y S26P V29E L30G K36Q W56A T59Q S62E,0.71 1.01 0.84 0.83 0.87 0.94,0/18
S25Y V29H L30G Y31G W56H T59L S62E,0.59 0.53 0.33 0.70 0.50 0.81,0/18
S25W Q27W V29W Y31L N35A W56N T59L,0.53 0.58 0.28 0.33 0.43 0.41,1/18 (2.79)
S25L S28Q V29G L30H E32G K36A S38N W56N T59K S62Q,0.34 0.46 0.25 0.19 0.08 0.47,1/18 (2.73)
S25V S26Q S28G L30W S62V,1.27 1.54 0.83 1.19 1.09 0.66,0/18
S25L V29M S33Q W56N T59L S62V Q96C,0.54 0.46 0.42 0.26 0.35 0.52,3/18 (2.87)
S25H Q27P V29E L30E N35L W56H E61C,0.75 0.96 0.79 0.92 0.99 0.96,0/18
S25L S26D V29T E32Q N37Q W56N T59Q,-0.06 -0.17 -0.28 -0.31 -0.28 -0.12,0/18
S25L S26Q Q27Y S28L E32G W56G E61L S62Q,1.39 1.76 1.85 1.77 2.44 2.07,1/18 (1.84)
S25L S28Q V29A L30E N35V W56Q,0.05 -0.09 -0.21 0.00 -0.15 -0.16,0/18
K24L S25Q V29E Y31L K36H W56E E61M S62D,1.42 1.73 2.14 1.47 1.18 2.05,1/18 (2.27)
S25A S26Q Q27A S28G V29D L30G W56Q A57G T59K,0.67 1.16 0.36 0.80 0.63 0.92,1/18 (2.76)
S25L S26E V29E E32Q K36P N37Q W56N T59E,0.63 0.43 0.24 -0.04 -0.02 0.68,0/18
S25V S26Y Q27W L30D S33D W56H T59R,0.51 0.73 0.86 0.26 0.47 0.96,0/18
S25L V29Q L30E W56D S58T T59Q E61L S62V,-0.22 -0.12 0.12 -0.30 -0.69 -0.31,0/18

In the paper, a design with two or fewer of six values counts as a poor binder.
The parent sequence was in this pool as ten entries: three were never detected, three once, and four in most replicates, with averages from 0.34 to 2.37.
Values of this round are not directly comparable with the first-round values of the same sequences.